# Measurements: PMC10051910 (Marine Drugs, 2023)
# How the values were obtained:
# Assay type in all cases: cell-based, Human
# COMI cells [1] = assay: GI50 on COMI cells under normoxic or hypoxic conditions; details: Normoxia (21% oxygen), 48 h, mean ± SEM, n = 6
# [2] = tested on: GSC#1 glioblastoma stem cell line; assay: GI50 growth inhibition, viable cell count (Hoechst 33342/PI), 48 h
# [3] = tested on: GB6 glioblastoma stem cell line; assay: as above
# [4] = tested on: GB7 glioblastoma stem cell line; assay: as above
# [5] = tested on: GB8 glioblastoma stem cell line; assay: as above
# [6] = tested on: GSC#151 glioblastoma stem cell line; assay: as above
# [7] = tested on: G166 glioblastoma stem cell line; assay: as above
# [8] = tested on: G144 glioblastoma stem cell line; assay: as above
# [9] = tested on: VIPI glioblastoma stem cell line; assay: as above
# [10] = tested on: COMI glioblastoma stem cell line; assay: as above
# [11] = tested on: panel of nine patient-derived GSC lines; assay: GI50 growth inhibition over the GSC line panel
# [12] = tested on: MCF10A breast epithelium cell line; assay: GI50 growth inhibition on non-tumor cell line, 48 h; details: for Selectivity index (SI) value range: GI50 MCF10A / GI50 of GSC lines, range over nine GSC lines
# [13] = tested on: Hs68 foreskin fibroblast cell line; assay: as above; details: for Selectivity index (SI) value range: GI50 Hs68 / GI50 of GSC lines, range over nine GSC lines
# [14] = tested on: hTERT-HPNE pancreatic duct cell line; assay: as above; details: for Selectivity index (SI) value range: GI50 hTERT-HPNE / GI50 of GSC lines, range over nine GSC lines
# [15] = tested on: ARPE-19 retinal pigmented epithelium cell line; assay: as above; details: for Selectivity index (SI) value range: GI50 ARPE-19 / GI50 of GSC lines, range over nine GSC lines
# COMI gliomaspheres = assay: Gliomasphere 3D model cytotoxicity (Calcein AM/SYTOX Red, CellTiter-Glo 3D); details: 4 days treatment
# COMI cells [16] = assay: Western blot for apoptosis and cell cycle markers
compound,measurement,setting,value
CCC1[As]2O[As]3O[As]1O[As](O2)C3CC (stereo not drawn),GI50,COMI cells [1],0.05 µM
same,Ratio GI50 ATO / GI50 alkyl polyarsenical,[2],11.1
same,Ratio GI50 ATO / GI50 alkyl polyarsenical,[3],8.7
same,Ratio GI50 ATO / GI50 alkyl polyarsenical,[4],27.0
same,Ratio GI50 ATO / GI50 alkyl polyarsenical,[5],11.1
same,Ratio GI50 ATO / GI50 alkyl polyarsenical,[6],33.3
same,Ratio GI50 ATO / GI50 alkyl polyarsenical,[7],12.7
same,Ratio GI50 ATO / GI50 alkyl polyarsenical,[8],23.9
same,Ratio GI50 ATO / GI50 alkyl polyarsenical,[9],19.9
same,Ratio GI50 ATO / GI50 alkyl polyarsenical,[10],18.6
same,fold greater potency than ATO on the GSC line panel,[11]; range over nine GSC lines,8.7–33.3 fold
same,Selectivity Index (SI),[12]; GI50 MCF10A / GI50 COMI,17.8
same,Selectivity Index (SI),[12]; GI50 MCF10A / GI50 G144,9.9
same,Selectivity Index (SI),[12]; GI50 MCF10A / GI50 G166,2.9
same,Selectivity Index (SI),[12]; GI50 MCF10A / GI50 GB6,2.6
same,Selectivity Index (SI),[12]; GI50 MCF10A / GI50 GB7,17.8
same,Selectivity Index (SI),[12]; GI50 MCF10A / GI50 GB8,2.7
same,Selectivity Index (SI),[12]; GI50 MCF10A / GI50 GSC#1,4.7
same,Selectivity Index (SI),[12]; GI50 MCF10A / GI50 GSC#151,7.4
same,Selectivity Index (SI),[12]; GI50 MCF10A / GI50 VIPI,4
same,Selectivity index (SI) value range,[12],2.6 to 17.8
same,Selectivity Index (SI),[13]; GI50 Hs68 / GI50 COMI,124
same,Selectivity Index (SI),[13]; GI50 Hs68 / GI50 G144,68.9
same,Selectivity Index (SI),[13]; GI50 Hs68 / GI50 G166,20
same,Selectivity Index (SI),[13]; GI50 Hs68 / GI50 GB6,18.2
same,Selectivity Index (SI),[13]; GI50 Hs68 / GI50 GB7,124
same,Selectivity Index (SI),[13]; GI50 Hs68 / GI50 GB8,18.8
same,Selectivity Index (SI),[13]; GI50 Hs68 / GI50 GSC#1,32.6
same,Selectivity Index (SI),[13]; GI50 Hs68 / GI50 GSC#151,51.7
same,Selectivity Index (SI),[13]; GI50 Hs68 / GI50 VIPI,28.2
same,Selectivity index (SI) value range,[13],18.2 to 124
same,Selectivity Index (SI),[14]; GI50 hTERT-HPNE / GI50 COMI,29.6
same,Selectivity Index (SI),[14]; GI50 hTERT-HPNE / GI50 G144,16.4
same,Selectivity Index (SI),[14]; GI50 hTERT-HPNE / GI50 G166,4.8
same,Selectivity Index (SI),[14]; GI50 hTERT-HPNE / GI50 GB6,4.4
same,Selectivity Index (SI),[14]; GI50 hTERT-HPNE / GI50 GB7,29.6
same,Selectivity Index (SI),[14]; GI50 hTERT-HPNE / GI50 GB8,4.5
same,Selectivity Index (SI),[14]; GI50 hTERT-HPNE / GI50 GSC#1,7.8
same,Selectivity Index (SI),[14]; GI50 hTERT-HPNE / GI50 GSC#151,12.3
same,Selectivity Index (SI),[14]; GI50 hTERT-HPNE / GI50 VIPI,6.7
same,Selectivity index (SI) value range,[14],4.4 to 29.6
same,Selectivity Index (SI),[15]; GI50 ARPE-19 / GI50 COMI,17.2
same,Selectivity Index (SI),[15]; GI50 ARPE-19 / GI50 G144,9.6
same,Selectivity Index (SI),[15]; GI50 ARPE-19 / GI50 G166,2.8
same,Selectivity Index (SI),[15]; GI50 ARPE-19 / GI50 GB6,2.5
same,Selectivity Index (SI),[15]; GI50 ARPE-19 / GI50 GB7,17.2
same,Selectivity Index (SI),[15]; GI50 ARPE-19 / GI50 GB8,2.6
same,Selectivity Index (SI),[15]; GI50 ARPE-19 / GI50 GSC#1,4.5
same,Selectivity Index (SI),[15]; GI50 ARPE-19 / GI50 GSC#151,7.2
same,Selectivity Index (SI),[15]; GI50 ARPE-19 / GI50 VIPI,3.9
same,Selectivity index (SI) value range,[15],2.5 to 17.2
CC1[As]2O[As]3O[As]1O[As](O2)C3C (stereo not drawn),GI50,COMI cells [1],0.15 µM
same,concentration that disrupts already formed gliomaspheres,COMI gliomaspheres,around 0.3 µM
same,Ratio GI50 ATO / GI50 alkyl polyarsenical,[2],3.2
same,Ratio GI50 ATO / GI50 alkyl polyarsenical,[3],2.7
same,Ratio GI50 ATO / GI50 alkyl polyarsenical,[4],15.0
same,Ratio GI50 ATO / GI50 alkyl polyarsenical,[5],2.7
same,Ratio GI50 ATO / GI50 alkyl polyarsenical,[6],6.5
same,Ratio GI50 ATO / GI50 alkyl polyarsenical,[7],2.7
same,Ratio GI50 ATO / GI50 alkyl polyarsenical,[8],6.5
same,Ratio GI50 ATO / GI50 alkyl polyarsenical,[9],3.7
same,Ratio GI50 ATO / GI50 alkyl polyarsenical,[10],6.2
same,GI50,"[11]; read-out: GI50 values range on the GSC lines tested, 48 h",0.09 to 1.46 µM
same,Selectivity Index (SI),[12]; GI50 MCF10A / GI50 COMI,16.9
same,Selectivity Index (SI),[12]; GI50 MCF10A / GI50 G144,7.7
same,Selectivity Index (SI),[12]; GI50 MCF10A / GI50 G166,1.7
same,Selectivity Index (SI),[12]; GI50 MCF10A / GI50 GB6,2.3
same,Selectivity Index (SI),[12]; GI50 MCF10A / GI50 GB7,28.2
same,Selectivity Index (SI),[12]; GI50 MCF10A / GI50 GB8,1.9
same,Selectivity Index (SI),[12]; GI50 MCF10A / GI50 GSC#1,3.8
same,Selectivity Index (SI),[12]; GI50 MCF10A / GI50 GSC#151,4.1
same,Selectivity Index (SI),[12]; GI50 MCF10A / GI50 VIPI,2.1
same,Selectivity index (SI) value range,[12],1.7 to 28.2
same,Selectivity Index (SI),[13]; GI50 Hs68 / GI50 COMI,51.9
same,Selectivity Index (SI),[13]; GI50 Hs68 / GI50 G144,23.6
same,Selectivity Index (SI),[13]; GI50 Hs68 / GI50 G166,5.3
same,Selectivity Index (SI),[13]; GI50 Hs68 / GI50 GB6,7.1
same,Selectivity Index (SI),[13]; GI50 Hs68 / GI50 GB7,86.4
same,Selectivity Index (SI),[13]; GI50 Hs68 / GI50 GB8,5.8
same,Selectivity Index (SI),[13]; GI50 Hs68 / GI50 GSC#1,11.8
same,Selectivity Index (SI),[13]; GI50 Hs68 / GI50 GSC#151,12.5
same,Selectivity Index (SI),[13]; GI50 Hs68 / GI50 VIPI,6.5
same,Selectivity index (SI) value range,[13],5.3 to 86.4
same,Selectivity Index (SI),[14]; GI50 hTERT-HPNE / GI50 COMI,20.8
same,Selectivity Index (SI),[14]; GI50 hTERT-HPNE / GI50 G144,9.5
same,Selectivity Index (SI),[14]; GI50 hTERT-HPNE / GI50 G166,2.1
same,Selectivity Index (SI),[14]; GI50 hTERT-HPNE / GI50 GB6,2.8
same,Selectivity Index (SI),[14]; GI50 hTERT-HPNE / GI50 GB7,34.7
same,Selectivity Index (SI),[14]; GI50 hTERT-HPNE / GI50 GB8,2.3
same,Selectivity Index (SI),[14]; GI50 hTERT-HPNE / GI50 GSC#1,4.7
same,Selectivity Index (SI),[14]; GI50 hTERT-HPNE / GI50 GSC#151,5
same,Selectivity Index (SI),[14]; GI50 hTERT-HPNE / GI50 VIPI,2.6
same,Selectivity index (SI) value range,[14],2.1 to 34.7
same,Selectivity Index (SI),[15]; GI50 ARPE-19 / GI50 COMI,14.6
same,Selectivity Index (SI),[15]; GI50 ARPE-19 / GI50 G144,6.6
same,Selectivity Index (SI),[15]; GI50 ARPE-19 / GI50 G166,1.5
same,Selectivity Index (SI),[15]; GI50 ARPE-19 / GI50 GB6,2
same,Selectivity Index (SI),[15]; GI50 ARPE-19 / GI50 GB7,24.3
same,Selectivity Index (SI),[15]; GI50 ARPE-19 / GI50 GB8,1.6
same,Selectivity Index (SI),[15]; GI50 ARPE-19 / GI50 GSC#1,3.3
same,Selectivity Index (SI),[15]; GI50 ARPE-19 / GI50 GSC#151,3.5
same,Selectivity Index (SI),[15]; GI50 ARPE-19 / GI50 VIPI,1.8
same,Selectivity index (SI) value range,[15],1.5 to 24.3
same,time at which apoptotic activity peaks,COMI cells [16]; 0.2 μM,48 h
same,time at which apoptotic activity starts,COMI cells [16]; 0.2 μM,36 h
same,concentration at which apoptosis induction peaks,"COMI cells [16]; 48 h, 0.05, 0.1, 0.2 and 0.4 μM tested",0.2 µM
same,apoptosis induction (cleaved caspase 3 and cleaved PARP levels),"COMI cells [16]; 48 h, concentrations around and above GI50, immunoblotting",strong apoptotic signal
same,p53 activation,"COMI cells [16]; 48 h, immunoblotting",very slight
